Laboratory results reported in ChEMBL document CHEMBL4340526, “Discovery and Mechanistic Study of Tailor-Made Quinoline Derivatives as Topoisomerase 1 Poison with Potent Anticancer Activity” (J Med Chem, 2019).
Activity calls are given as the source filed them. The rule behind the calls is not given here.

Legend:
[1] = target: T1, DNA topoisomerase 1 (Homo sapiens) (UniProt P11387); assay: Inhibition of TOP1-mediated DNA cleavage in human MCF7 cells assessed as induction of protein-DNA covalent cleavage complex formation by measuring increase in gammaH2AX foci formation preincubated for 3 to 5 hrs followed by compound washout and measured after 5 hrs by DAPI staining-based immunofluorescence microscopic method; format: cell-based
T1 sequence (whole entry): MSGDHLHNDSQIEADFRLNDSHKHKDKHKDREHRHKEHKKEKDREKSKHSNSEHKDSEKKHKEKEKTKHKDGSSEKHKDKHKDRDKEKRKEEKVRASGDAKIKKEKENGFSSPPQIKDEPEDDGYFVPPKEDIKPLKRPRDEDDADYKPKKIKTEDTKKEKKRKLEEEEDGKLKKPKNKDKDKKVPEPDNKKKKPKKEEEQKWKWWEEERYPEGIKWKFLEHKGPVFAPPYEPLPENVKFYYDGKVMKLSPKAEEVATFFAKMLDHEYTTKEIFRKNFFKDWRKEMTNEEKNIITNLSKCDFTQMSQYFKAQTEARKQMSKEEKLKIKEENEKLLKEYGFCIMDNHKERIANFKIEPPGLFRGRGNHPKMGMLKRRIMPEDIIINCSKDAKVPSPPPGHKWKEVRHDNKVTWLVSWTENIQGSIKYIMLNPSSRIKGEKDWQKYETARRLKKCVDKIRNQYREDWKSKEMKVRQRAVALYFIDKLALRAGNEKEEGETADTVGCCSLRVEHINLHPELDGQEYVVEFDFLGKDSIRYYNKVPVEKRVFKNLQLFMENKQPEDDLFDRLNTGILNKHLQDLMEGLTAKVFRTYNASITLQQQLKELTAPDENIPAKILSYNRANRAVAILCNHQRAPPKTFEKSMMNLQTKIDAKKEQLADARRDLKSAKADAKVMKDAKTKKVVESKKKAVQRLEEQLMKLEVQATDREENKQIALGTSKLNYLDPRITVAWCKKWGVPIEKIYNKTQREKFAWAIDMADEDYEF

[2] = target: T1, DNA topoisomerase 1 (Homo sapiens); assay: Inhibition of TOP1-mediated DNA cleavage in human MCF7 cells assessed as induction of protein-DNA covalent cleavage complex formation by measuring increase in gammaH2AX foci formation by DAPI staining-based immunofluorescence microscopic method; format: cell-based
[3] = target: T1, DNA topoisomerase 1 (Homo sapiens); assay: Poison activity at TOP1 in human MCF7 cells assessed as decrease in relaxed supercoiled pBS(SK+) DNA mobility at 0.25 to 2 uM measured after 30 mins by ethidium bromide staining based agarose gel electrophoresis; format: cell-based
[4] = target: T1, DNA topoisomerase 1 (Homo sapiens); assay: Poison activity at recombinant human TOP1 expressed in baculovirus infected Sf9 insect cells assessed as stabilization of enzyme-25mer duplex oligonucleotide cleavable complex formation at 5 to 25 uM measured after 30 mins by ethidium bromide staining based agarose gel electrophoresis method
[5] = target: T1, DNA topoisomerase 1 (Homo sapiens); assay: Poison activity at recombinant human TOP1 expressed in baculovirus infected Sf9 insect cells assessed as decrease in relaxed supercoiled pBS(SK+) DNA mobility at 0.1 uM measured after 30 mins by ethidium bromide staining based agarose gel electrophoresis relative to control; design: scale not given: the % may be the effect or the level left

With `COc1ccc(-c2ccc3ncc(-c4nnco4)c(NCCCn4ccnc4)c3c2)cc1` as the compound, how does the fold change (FC) [1] read?
Its fold change (FC) is 3 to 4.

What about the inhibition [2] of the same compound?
The inhibition was “Dose-dependent effect”.

What about the Activity [3] of the same compound?
The Activity was “Active”.

What about the Activity [4] of the same compound?
Its Activity is “Active”.

What about the Activity [5] of the same compound?
The Activity was 85 to 90%.
